In ChEMBL document CHEMBL1129539, “2,4-diamino-5-deaza-6-substituted pyrido[2,3-d]pyrimidine antifolates as potent and selective nonclassical inhibitors of dihydrofolate reductases” (J Med Chem, 1996):

Molecular target: T1, Bifunctional dihydrofolate reductase-thymidylate synthase (Toxoplasma gondii, UniProt Q07422)
T1 sequence (Q07422 whole entry): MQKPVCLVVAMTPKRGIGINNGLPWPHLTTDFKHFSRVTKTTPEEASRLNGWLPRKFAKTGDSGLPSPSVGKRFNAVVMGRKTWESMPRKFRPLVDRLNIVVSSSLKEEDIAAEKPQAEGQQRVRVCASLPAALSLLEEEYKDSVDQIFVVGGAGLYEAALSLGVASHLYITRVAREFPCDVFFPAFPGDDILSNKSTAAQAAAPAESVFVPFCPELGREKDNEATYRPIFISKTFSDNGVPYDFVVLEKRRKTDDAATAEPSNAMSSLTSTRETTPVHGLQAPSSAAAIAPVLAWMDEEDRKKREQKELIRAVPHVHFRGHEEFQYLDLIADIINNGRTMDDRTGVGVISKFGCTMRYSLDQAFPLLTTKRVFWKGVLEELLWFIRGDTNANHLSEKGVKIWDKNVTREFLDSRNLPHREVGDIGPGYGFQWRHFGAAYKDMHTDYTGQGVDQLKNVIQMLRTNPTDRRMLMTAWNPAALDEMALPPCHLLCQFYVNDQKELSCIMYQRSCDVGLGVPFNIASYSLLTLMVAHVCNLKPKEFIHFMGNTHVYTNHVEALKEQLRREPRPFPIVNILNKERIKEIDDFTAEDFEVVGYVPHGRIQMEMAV

For `COc1ccc(OC)c(CN(C)c2cnc3nc(N)nc(N)c3c2)c1`, the IC50 was 28 nM.
